Experiments:
[1] = molecular target: human ghrelin receptor (GRLN, growth hormone secretagogue receptor, hGHS-R1a) (Homo sapiens, UniProt Q92847); experiment: Competitive radioligand binding assay (ghrelin receptor), Method B1; details: Ghrelin receptor binding activity
[2] = molecular target: GHS-R1a receptor (HEK293 cells expressing GHS-R1a receptor) (Homo sapiens, UniProt Q92847); experiment: Fluorescence functional assay (ghrelin receptor), Method B2, agonist and antagonist mode; details: functional activity as an antagonist at the ghrelin receptor, Methods B2 and B3
[3] = molecular target: ghrelin receptor (HEK-GHSR1 stable cells) (Homo sapiens, UniProt Q92847); experiment: Ghrelin receptor inverse agonist assay (HTRF IP-one), Method B4; details: read-out: IC50 (Inverse Agonist Activity), inverse agonist at the ghrelin receptor
[4] = Metabolic stability in human liver microsomes, Method B8; details: human liver microsomes 0.8 mg/mL, 5 μM compound, 37° C.
[5] = Pharmacokinetic analysis (intravenous and oral), Method B9; details: Table 10b; for Cl / t1/2: 2 mg/mL intravenous typically employed; for % F: 2 mg/mL intravenous and 8 mg/mL oral typically employed
CYP2D6 = CYP2D6 (Homo sapiens, UniProt P10635); experiment: Cytochrome P450 inhibition, Method B6; details: read-out: IC50 CYP 2D6; Table 4b; dextromethorphan used as substrate
CYP3A4 = CYP3A4 (Homo sapiens, UniProt P08684); experiment: Cytochrome P450 inhibition, Method B6 (two substrates); details: read-out: IC50 CYP 3A4; Table 4b; midazolam used as substrate
[6] = Plasma protein binding (equilibrium dialysis), Method B5; details: 60 min at 37° C., typically 10 μM

The chains behind the UniProt entries cited, without tags or fusion partners.
UniProt Q92847, whole entry: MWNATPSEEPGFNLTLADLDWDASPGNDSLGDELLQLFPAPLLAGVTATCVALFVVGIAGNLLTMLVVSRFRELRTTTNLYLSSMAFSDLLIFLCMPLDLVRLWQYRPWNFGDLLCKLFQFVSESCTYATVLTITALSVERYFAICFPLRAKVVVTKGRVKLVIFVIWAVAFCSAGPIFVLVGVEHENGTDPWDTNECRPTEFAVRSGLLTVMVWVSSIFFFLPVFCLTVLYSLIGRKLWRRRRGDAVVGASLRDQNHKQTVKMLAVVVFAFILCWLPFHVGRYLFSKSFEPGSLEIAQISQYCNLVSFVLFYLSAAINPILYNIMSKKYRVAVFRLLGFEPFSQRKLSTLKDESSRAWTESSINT
UniProt P10635, whole entry: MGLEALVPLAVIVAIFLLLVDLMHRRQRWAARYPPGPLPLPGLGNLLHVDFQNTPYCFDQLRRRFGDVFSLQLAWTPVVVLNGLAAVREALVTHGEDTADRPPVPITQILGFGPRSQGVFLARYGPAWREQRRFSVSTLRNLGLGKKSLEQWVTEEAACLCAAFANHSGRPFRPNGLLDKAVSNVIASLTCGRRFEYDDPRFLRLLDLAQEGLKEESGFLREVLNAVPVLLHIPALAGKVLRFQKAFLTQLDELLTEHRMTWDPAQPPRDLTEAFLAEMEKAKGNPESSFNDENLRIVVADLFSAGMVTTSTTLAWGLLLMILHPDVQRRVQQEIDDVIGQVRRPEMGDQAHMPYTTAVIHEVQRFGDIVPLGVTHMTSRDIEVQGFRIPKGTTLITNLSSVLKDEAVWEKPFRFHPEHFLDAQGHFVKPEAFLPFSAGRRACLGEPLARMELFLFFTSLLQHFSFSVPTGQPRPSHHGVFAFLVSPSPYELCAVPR
UniProt P08684, whole entry: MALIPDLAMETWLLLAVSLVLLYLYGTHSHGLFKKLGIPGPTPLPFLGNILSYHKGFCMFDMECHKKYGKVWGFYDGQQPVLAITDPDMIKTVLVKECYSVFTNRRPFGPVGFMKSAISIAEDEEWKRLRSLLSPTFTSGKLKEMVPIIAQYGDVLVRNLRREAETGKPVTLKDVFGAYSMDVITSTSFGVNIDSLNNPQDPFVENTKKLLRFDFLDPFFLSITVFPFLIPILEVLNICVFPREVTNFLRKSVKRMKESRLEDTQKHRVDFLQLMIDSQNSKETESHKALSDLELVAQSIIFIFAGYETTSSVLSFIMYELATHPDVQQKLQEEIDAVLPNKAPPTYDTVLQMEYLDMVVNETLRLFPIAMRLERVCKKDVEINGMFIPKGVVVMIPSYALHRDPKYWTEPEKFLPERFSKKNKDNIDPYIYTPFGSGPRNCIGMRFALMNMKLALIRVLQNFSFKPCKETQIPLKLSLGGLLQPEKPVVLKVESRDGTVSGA

SMILES | IC50 [1] [nM] | Antagonist Activity [2] | IC50 [3] [nM] | further results
CC[C@@H]1CCc2ccc(F)cc2OCCN[C@@H](C(C)C)C(=O)N(C)[C@@H](C(C)O)C(=O)N[C@H]([C@@H](C)c2c[nH]c3ccccc23)C(=O)N1 (stereo partly drawn) | 10 to 100 | C (C = 10-100 nM) | 100 to 500 | HLM, metabolic stability in human liver microsomes [4]: 14.3 μL/min/mg protein
CC(O)[C@H]1C(=O)N[C@H](Cc2ccccc2)C(=O)NCC2CCc3cccc(c3C2)OCCN[C@@H](C(C)(C)C)C(=O)N1C (stereo partly drawn) | 1 to 10 | B (B = 1-10 nM) | 50 to 100 | Cl [5]: 8 ± 4 mL/min/kg; t1/2 [5]: 105 ± 20 min
CC(C)[C@@H]1NCCOc2ccccc2C[C@H](O)[C@@H](C)NC(=O)[C@@H](Cc2c[nH]c3ccccc23)NC(=O)[C@H](C(C)O)N(C)C1=O (stereo partly drawn) | – | B (B = 1-10 nM) | – | IC50 (CYP2D6): 12.7 µM; IC50 (CYP3A4): 1400 nM
CC(O)[C@H]1C(=O)N[C@H](Cc2c[nH]c3ccccc23)C(=O)NC/C=C/c2c(F)cccc2OCCN[C@@H](C2(C)CC2)C(=O)N1C (stereo partly drawn) | 10 to 100 | B (B = 1-10 nM) | 100 to 500 | % F [5]: 2 ± 1%; Cl [5]: 24 ± 11 mL/min/kg; t1/2 [5]: 70 ± 8 min
CCC1CCc2cc(F)ccc2OCCN[C@@H](C(C)C)C(=O)N(C)[C@@H](C(C)O)C(=O)N[C@H](Cc2c[nH]c3ccccc23)C(=O)N1 (stereo partly drawn) | 10 to 100 | B (B = 1-10 nM) | 50 to 100 | –
CC(C)[C@@H]1NCCOc2cccc(F)c2/C=C/CNC(=O)[C@@H](Cc2cccc(F)c2)NC(=O)[C@H](C(C)O)N(C)C1=O (stereo partly drawn) | – | B (B = 1-10 nM) | – | IC50 (CYP2D6): 6.3 µM; IC50 (CYP3A4): 1400 nM
CC(O)[C@H]1C(=O)N[C@H](Cc2ccc(F)cc2)C(=O)NCC#Cc2ccc(F)cc2OCCN[C@@H](C2(C)CC2)C(=O)N1C (stereo partly drawn) | 1 to 10 | – | 10 to 50 | IC50 (CYP3A4): 11500 nM
CCC(C)[C@@H]1NCCOc2ccccc2[C@H]2C[C@@H]2CNC(=O)[C@@H](Cc2ccccc2)NC(=O)[C@H](C(C)O)N(C)C1=O (stereo partly drawn) | 10 to 100 | C (C = 10-100 nM) | – | Ki [1]: 1 to 10 nM
CC(O)[C@H]1C(=O)N[C@H](Cc2c[nH]c3ccc(F)cc23)C(=O)N[C@H](C)CCc2ccccc2OCCN[C@@H](C2CCCCC2)C(=O)N1C (stereo partly drawn) | 1 to 10 | – | 100 to 500 | –
CC(C)[C@@H]1NCCOc2ccccc2C#C[C@@H](C)NC(=O)[C@@H](Cc2cccc(F)c2)NC(=O)[C@H](C(C)O)N(C)C1=O (stereo partly drawn) | – | B (B = 1-10 nM) | – | IC50 (CYP2D6): > 20 µM; IC50 (CYP3A4): 1400 nM; HLM, metabolic stability in human liver microsomes [4]: 13.6 μL/min/mg protein
CC[C@@H]1NC[C@@H](C)Oc2cc(F)ccc2CC[C@@H](C)NC(=O)[C@@H](Cc2ccccc2)NC(=O)[C@H](C(C)O)N(C)C1=O (stereo partly drawn) | > 500 | – | 100 to 500 | –
CCC1CCc2cccnc2OCCNC(C2(C)CC2)C(=O)N(C)C(C(C)O)C(=O)NC(Cc2c[nH]c3ccccc23)C(=O)N1 (single isomer, unassigned) [1922a] | 1 to 10 | – | 50 to 100 | –
CC(C)[C@@H]1NCCOc2ccccc2C2CCC(C2)NC(=O)[C@@H](Cc2ccc(Cl)cc2)NC(=O)[C@H](C(C)O)N(C)C1=O (stereo partly drawn) | 1 to 10 | – | 10 to 50 | Cl [5]: 34 ± 4 mL/min/kg; t1/2 [5]: 65 ± 25 min
CC(O)[C@H]1C(=O)N[C@H](Cc2ccc(F)cc2)C(=O)N[C@H](C)CCc2ccc(F)cc2OCCN[C@@H](C2(C)CC2)C(=O)N1C (stereo partly drawn) | 1 to 10 | – | 10 to 50 | –
CC(C)[C@@H]1NCCOc2ccccc2C#C[C@@H](C)NC(=O)[C@@H]([C@H](C)c2ccccc2)NC(=O)[C@H](C(C)O)N(C)C1=O (stereo partly drawn) | 1 to 10 | – | 10 to 50 | HLM, metabolic stability in human liver microsomes [4]: 40.4 μL/min/mg protein
CC(C)[C@@H]1NCCOc2cccc(F)c2/C=C/CNC(=O)[C@@H](Cc2ccccc2)NC(=O)[C@H](C(C)O)N(C)C1=O (stereo partly drawn) | 1 to 10 | – | 100 to 500 | –

SMILES | IC50 [1] [nM] | Antagonist Activity [2] | IC50 [3] [nM] | further results
CCC(C)[C@@H]1NCCOc2cccc3c2CC(CC3)CNC(=O)[C@@H](Cc2ccc(O)cc2)NC(=O)[C@H](C(C)O)N(C)C1=O (single isomer, unassigned) [1790a] | 1 to 10 | C (C = 10-100 nM) | 100 to 500 | –
CC(C)[C@@H]1NCCOc2ccccc2C2CCC(C2)NC(=O)[C@@H](Cc2ccc(F)cc2)NC(=O)[C@H](C(C)O)N(C)C1=O (single isomer, unassigned) [1903a] | 10 to 100 | – | 10 to 50 | Cl [5]: 17 ± 9 mL/min/kg; t1/2 [5]: 31 ± 13 min
CC[C@@H]1CCc2ccc(F)cc2OCCN[C@@H](C2(C)CC2)C(=O)N(C)[C@@H](C(C)O)C(=O)N[C@H]([C@H](C)c2ccccc2)C(=O)N1 (stereo partly drawn) | 1 to 10 | B (B = 1-10 nM) | 100 to 500 | HLM, metabolic stability in human liver microsomes [4]: 15.6 μL/min/mg protein
CCC(C)[C@@H]1NCCOC2CCCCC2CCCNC(=O)[C@@H](Cc2ccccc2)NC(=O)[C@H](C(C)O)N(C)C1=O (stereo partly drawn) | – | C (C = 10-100 nM) | – | Ki [1]: 1 to 10 nM; IC50 (CYP2D6): > 5 µM; IC50 (CYP3A4): 2600 nM
CC(C)[C@@H]1NCCOc2cccc(F)c2/C=C/CNC(=O)[C@@H](Cc2ccc(F)cc2)NC(=O)[C@H](C(C)O)N(C)C1=O (stereo partly drawn) | 1 to 10 | – | 100 to 500 | –
CC(C)[C@@H]1NCCOc2cccc(F)c2C#CCNC(=O)[C@@H](Cc2c[nH]c3ccccc23)NC(=O)[C@H](C(C)O)N(C)C1=O (stereo partly drawn) | 1 to 10 | C (C = 10-100 nM) | 100 to 500 | % F [5]: 36 ± 29%; Cl [5]: 18 ± 16 mL/min/kg; t1/2 [5]: 74 ± 27 min
CC(C)[C@@H]1NCCOc2ccccc2C#C[C@@H](C)NC(=O)[C@@H](Cc2c[nH]c3ccccc23)NC(=O)[C@H](C(C)O)N(C)C1=O (stereo partly drawn) | – | – | – | IC50 (CYP2D6): > 20 µM; IC50 (CYP3A4): 1500 nM; HLM, metabolic stability in human liver microsomes [4]: 23.6 μL/min/mg protein
CCC(C)[C@@H]1NCCOc2cccc3c2CC(CC3)CNC(=O)[C@@H](Cc2cccc(F)c2)NC(=O)[C@H](C(C)O)N(C)C1=O (single isomer, unassigned) [1792a] | 1 to 10 | – | 50 to 100 | –
CC(C)[C@@H]1NCCO[C@H]2CCCC[C@H]2CCCNC(=O)[C@@H](Cc2cccc(F)c2)NC(=O)[C@H](C(C)O)N(C)C1=O (stereo partly drawn) | – | C (C = 10-100 nM) | – | IC50 (CYP2D6): > 20 µM; IC50 (CYP3A4): 600 nM; HLM, metabolic stability in human liver microsomes [4]: 69.3 μL/min/mg protein
CC(C)[C@@H]1NCCOc2ccccc2C2CCC(C2)NC(=O)[C@@H](Cc2ccccc2)NC(=O)[C@H](C(C)O)N(C)C1=O (single isomer, unassigned) [1848a] | 1 to 10 | – | 10 to 50 | –
CCC(C)[C@@H]1NCCOc2cccc3c2CC(CC3)CNC(=O)[C@@H](Cc2c[nH]c3ccccc23)NC(=O)[C@H](C(C)O)N(C)C1=O (stereo partly drawn) | 1 to 10 | B (B = 1-10 nM) | 100 to 500 | % F [5]: 81 ± 55%; Cl [5]: 26 ± 8 mL/min/kg; t1/2 [5]: 52 ± 1 min
CC(O)[C@H]1C(=O)N[C@H](Cc2ccccc2)C(=O)N[C@H](C)CCc2ccccc2OCCN[C@@H](C2(C)CC2)C(=O)N1C (stereo partly drawn) | – | B (B = 1-10 nM) | – | IC50 (CYP2D6): > 8 µM; IC50 (CYP3A4): 1100 nM; HLM, metabolic stability in human liver microsomes [4]: 54.5 μL/min/mg protein
CC(C)[C@@H]1NCCOc2ccccc2C#C[C@@H](C)NC(=O)[C@@H](Cc2ccc(Cl)cc2)NC(=O)[C@H](C(C)O)N(C)C1=O (stereo partly drawn) | 1 to 10 | – | 50 to 100 | Binding (%), Human Plasma Protein Binding [6]: 99.1%; HLM, metabolic stability in human liver microsomes [4]: 32.8 μL/min/mg protein
CC(C)[C@@H]1NCCOc2ccccc2/C=C/CNC(=O)[C@@H](Cc2ccc(Cl)cc2)NC(=O)[C@H](C(C)O)N(C)C1=O (stereo partly drawn) | 1 to 10 | – | 10 to 50 | –
CC(C)[C@@H]1NCCOc2cccc3c2CC(CC3)CNC(=O)[C@@H](Cc2ccc(Cl)cc2)NC(=O)[C@H](C(C)O)N(C)C1=O (single isomer, unassigned) [1858a] | 1 to 10 | – | 50 to 100 | –
CCC(C)[C@@H]1NCCOc2cccc3c2CC(CC3)CNC(=O)[C@@H](Cc2ccc(F)cc2)NC(=O)[C@H](C(C)O)N(C)C1=O (stereo partly drawn) | 1 to 10 | – | 50 to 100 | –

From patent US20110105389A1 (priority 2009, published 2011)
